{
  "source": "paper PMC8353992",
  "about": "(Journal of medicinal chemistry, 2021)",
  "key": {"[1]": {"test_system": "infectious SARS-CoV-2 virus in Vero E6 cells", "assay_type": "cell-based"}, "[2]": {"test_system": "infectious SARS-CoV-2 virus in Vero E6 cells", "assay_type": "cell-based", "remark": "listed apart in the source"}},
  "data": [
    {"smiles": "O=C(Cn1nnc2ccccc21)N(Cc1cccc(Cl)c1)c1ccc(-c2c[nH]cn2)cc1", "note": "[Compound 41, N-(4-(1H-Imidazol-4-yl)phenyl)-2-(1H-benzo[d][1,2,3]triazol-1-yl)-N-(3-chlorobenzyl)acetamide]", "values": [
      {"measurement": "CPE Inhibition Assay EC50", "setting": "[1]", "value": "sub-micromolar"},
      {"measurement": "Plaque Reduction Assay EC50", "setting": "[2]", "value": "sub-micromolar"}
    ]}
  ]
}
